The test concerns Corynebacterium glutamicum KFCC 10680. In words: NTG mutagenesis treatment, cell death rate. As to conditions: NTG final concentration about 200 mg/L, room temperature, about 20 minutes; plated on minimal medium, about 30° C., about 6 days.

Structures are written as SMILES.

Consider `CN(N=O)C(=N)N[N+](=O)[O-]`, for which the cell death rate result is given as “about 85%”.

For the origin of these results see patent publication US10023888B2, “Microorganism for producing L-glutamine and method for producing L-glutamine using same” (dated 2018).
